Test results: PMC10449848, “Structural basis of lipid-droplet localization of 17-beta-hydroxysteroid dehydrogenase 13” (Nature Communications, 2023)
Positions count from the first letter of the chain named.

Chains of the proteins cited; added tags and fusions are not shown. Residues count along the entry.
UniProt A0A8C0PP93, 1-300 G177E/V178G/T205A/I293V: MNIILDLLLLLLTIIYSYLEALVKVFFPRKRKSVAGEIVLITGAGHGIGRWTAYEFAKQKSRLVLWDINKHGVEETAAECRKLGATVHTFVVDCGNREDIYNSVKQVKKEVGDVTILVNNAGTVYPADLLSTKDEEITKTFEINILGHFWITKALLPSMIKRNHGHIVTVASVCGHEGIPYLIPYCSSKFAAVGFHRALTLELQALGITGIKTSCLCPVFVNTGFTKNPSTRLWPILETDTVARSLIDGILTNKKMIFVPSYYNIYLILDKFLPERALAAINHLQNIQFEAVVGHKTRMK

What was measured:
dog WT HSD17B13 = target: T1, dog WT HSD17B13 (Canis lupus familiaris, UniProt A0A8C0PP93); assay: Thermal shift assay (static light scattering, Tagg), dog WT HSD17B13; type: binding; settings: Fig. 6d; 500 μM NAD+
T1 construct: HSD17B13 (AA1-300, XP_038300006.1); made in house; host or cells: Sf9 (baculovirus)
T1 sequence (A0A8C0PP93 1-300): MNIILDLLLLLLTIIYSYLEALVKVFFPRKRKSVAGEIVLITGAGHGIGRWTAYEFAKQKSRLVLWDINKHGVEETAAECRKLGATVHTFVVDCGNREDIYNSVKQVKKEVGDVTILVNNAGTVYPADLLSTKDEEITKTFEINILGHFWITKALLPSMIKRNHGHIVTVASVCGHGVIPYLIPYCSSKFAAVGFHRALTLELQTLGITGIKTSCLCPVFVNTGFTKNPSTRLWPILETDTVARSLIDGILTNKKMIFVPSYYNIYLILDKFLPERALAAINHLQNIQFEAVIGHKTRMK
Text: (§1) To understand ligand binding, we tested several approaches such as surface plasmon resonance and isothermal calorimetry. […] We next turned to thermal shift assays (TSA) for comparing ligand binding affinities. TSA measures the changes in the thermal denaturation temperature of a protein under different conditions such as the presence compound, changes in buffer conditions, or sequence mutations. There are various readouts including intrinsic fluorescence or light scattering signals. We chose the static light scattering methods to detect the temperatures at which our proteins start to aggregate (Tagg), which are more suitable for membrane proteins that require detergent micelles for stability.
(§2) TSA studies were run on the UNit instrument (Unchained Labs, CA, USA). […] The data was processed using the UNcle software (Unchained Labs, CA, USA), and temperatures at which the protein started aggregation were recorded as Tagg.

[1] = target: T2, dog mutant HSD17B13 (G177E/V178G/T205A/I293V) (Canis lupus familiaris, UniProt A0A8C0PP93, G177E/I293V/T205A/V178G); assay: Thermal shift assay (static light scattering, Tagg), dog mutant HSD17B13; type: binding; settings: Fig. 6d; 500 μM NAD+
T2 construct: HSD17B13 (AA1-300, XP_038300006.1); made in house; host or cells: Sf9 (baculovirus)
T2 sequence (A0A8C0PP93 1-300 G177E/V178G/T205A/I293V): T1 sequence (A0A8C0PP93 1-300) with G177E, V178G, T205A, I293V
Text: as §1, §2

Cc1ccc(S(=O)(=O)c2cc(C)cc(S(=O)(=O)Nc3ccc(C(=O)O)cc3)c2C)cc1 [Compound 2]
stabilization in TSA (dog WT HSD17B13): Neither 1 nor 2 stabilized dog WT HSD17B13 significantly | binding in TSA [1]: did not bind compound 2 significantly
